Only a part is listed here, and it is no random draw. The source made the active and inactive calls. Cut-off read from the data, not from the text of the source: active = inhibition mostly above about 23% (no sharp cut-off); inactive = mostly below about 18%.
Molecular target: 5-hydroxytryptamine receptor 5A (Homo sapiens) (UniProt P47898)
Assay: HTR5A inverse agonists in luminescence cell assay, primary screen, counter-screen for OPRM1-OPRD1 heterodimer inverse agonist project, full-deck HTS (AID 504634);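 note: 0% = cells with DMSO and 100% = no-cell wells with DMSO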
Conditions: HTR5A cell line, inverse agonism, at 9.3 µM, active compounds read high

Protein sequences, listed by entry. Tags and fused reporters are not part of them.
UniProt P47898, whole entry, looked up: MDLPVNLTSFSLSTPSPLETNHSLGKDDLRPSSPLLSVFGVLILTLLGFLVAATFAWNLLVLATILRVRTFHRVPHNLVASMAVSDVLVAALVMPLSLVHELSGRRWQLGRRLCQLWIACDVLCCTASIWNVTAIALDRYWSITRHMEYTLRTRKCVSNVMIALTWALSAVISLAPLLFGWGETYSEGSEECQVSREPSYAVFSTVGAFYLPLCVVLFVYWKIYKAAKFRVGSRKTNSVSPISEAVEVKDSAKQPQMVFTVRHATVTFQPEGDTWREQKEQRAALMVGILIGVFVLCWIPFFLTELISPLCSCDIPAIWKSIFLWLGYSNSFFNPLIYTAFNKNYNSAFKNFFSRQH

Question: With Cn1c(=O)n(Cc2ccccc2)c(=O)c2c1nc1n2CCN1Cc1ccco1 as the compound, how does the inhibition read?
Answer: inactive: 11.8%

Question: Cn1c(=O)c2c(ncn2CC(=O)N/N=C/c2ccc(Br)s2)n(C)c1=O was tested. Which inhibition did it give?
Answer: inactive: 1.08%

Question: For COC(=O)c1ccccc1NC(=O)Cn1cnc2c1c(=O)n(C)c(=O)n2C, which inhibition is on record?
Answer: inactive: -8.17%

Question: With O=C(Cn1c(CCCO)nc2ccccc21)Nc1ccccc1-c1ccccc1 as the compound, how does the inhibition read?
Answer: inactive: -9.62%

Question: For C/C(=N\NC(=O)Cn1c(C)nc2ccccc21)c1cccs1, which inhibition is on record?
Answer: inactive: -19.7%

Question: With CCCNC(=O)Cn1c(=O)n(C)c2ccccc21 as the compound, how does the inhibition read?
Answer: inactive: 15.9%

Question: How did the inhibition turn out when CC(C)(C)NC(=O)Cn1c(SCC(=O)NC2CCCCC2)nc2ccccc21 was run?
Answer: inactive: 2.2%

Question: For CCNC(=S)N1CCn2c(nc3ccccc32)C1, which inhibition is on record?
Answer: inactive: 8.22%

Question: For CC1CN(Cc2nc3c(c(=O)n(C)c(=O)n3C)n2CCN2CCOCC2)CC(C)O1 (stereo not given), which inhibition is on record?
Answer: inactive: 16.7%

Question: For Cc1cc(SC(NC=O)C(Cl)(Cl)Cl)ncn1 (stereo not given), which inhibition is on record?
Answer: inactive: 7.65%

Question: How did the inhibition turn out when CCc1nc2ccccc2n1CC(=O)N1CCN(S(=O)(=O)c2cccc(C(F)(F)F)c2)CC1 was run?
Answer: inactive: 6.34%

Question: How did the inhibition turn out when O=P(Nc1ccccn1)(c1cccc2ccccc12)c1cccc2ccccc12 was run?
Answer: inactive: 0.97%

Question: Which inhibition does the source give for COc1ccccc1C(=O)OCCNC(=O)Cn1cnc2c1c(=O)n(C)c(=O)n2C here?
Answer: inactive: 20.6%

Question: How did the inhibition turn out when O=C(Cn1c(CC(=O)N2CCOCC2)nc2ccccc21)Nc1ccc2c(c1)OC(F)(F)O2 was run?
Answer: inactive: -3.91%

Question: How did the inhibition turn out when O=[N+]([O-])c1ccc(Nc2ccc(Oc3ccc([N+](=O)[O-])cc3[N+](=O)[O-])cc2)c([N+](=O)[O-])c1 was run?
Answer: inactive: 2.71%

Question: For CCC(C)c1ccc2oc(-c3ccc(NC(=O)Cn4cnc5c(=O)n(C)c(=O)n(C)c54)cc3)nc2c1 (stereo not given), which inhibition is on record?
Answer: inactive: -8.47%

Question: CCS(=O)(=O)c1nc2ccccc2n1CC(=O)N1CCOCC1 was tested. Which inhibition did it give?
Answer: inactive: 7.83%

Question: COCCN1CCn2c(nc3cc(NC(=O)c4ccc(OC)cc4)ccc32)C1 was tested. Which inhibition did it give?
Answer: inactive: -0.58%

Question: Which inhibition does the source give for O=C(Cn1cnc2c(OCc3ccccc3)ncnc21)NCCCc1ccccc1 here?
Answer: inactive: -37.9%

Question: Which inhibition does the source give for CCC(=O)Nc1nnc(/C=C/c2ccccc2)s1 here?
Answer: inactive: 5.51%

Question: For Cn1c(=O)c2c(ncn2CC(=O)N2CCc3ccccc3C2)n(C)c1=O, which inhibition is on record?
Answer: inactive: -6.37%

Question: Which inhibition does the source give for CCC[n+]1cn(/C(C(=S)Nc2cccc(Cl)c2C)=C(/[O-])c2ccc(OC)c(OC)c2)c2ccccc21 here?
Answer: inactive: 17.3%

Question: How did the inhibition turn out when COc1ccc(OCC(=O)N2c3ccc(C)cc3C3CN(C)CCC32)cc1 (stereo not given) was run?
Answer: inactive: -1.75%

Question: For O=C(CCCCCNC(=O)N1CCn2c1nc1ccccc12)NCCc1ccccc1, which inhibition is on record?
Answer: inactive: -8.78%

Question: How did the inhibition turn out when Cc1ccc2c(c1)[C@@H]1CN(C)CC[C@@H]1N2S(=O)(=O)c1ccc([N+](=O)[O-])cc1 was run?
Answer: inactive: 15.9%

Question: NNC(=O)Cn1c(-c2ccccn2)nc2ccccc21 was tested. Which inhibition did it give?
Answer: inactive: -15%

Question: COc1cc(NC(=O)[C@H](C)NC(=O)N2CCn3c2nc2ccccc23)cc(OC)c1 was tested. Which inhibition did it give?
Answer: inactive: -8.29%

Question: Which inhibition does the source give for Cc1ccc(NC(=O)Cn2c(=S)[nH]c3ccccc32)cc1 here?
Answer: inactive: 2.19%

Question: How did the inhibition turn out when Cn1c(=O)c2c(ncn2CC(=O)NCc2cccnc2)n(C)c1=O was run?
Answer: inactive: -14.2%

Question: How did the inhibition turn out when O=C(Cn1c(CO)nc2ccccc21)Nc1ccc2c(c1)OCCCO2 was run?
Answer: inactive: -7.68%

Question: Which inhibition does the source give for COC(=O)C[C@H](NC(=O)Cn1cnc2c(OCc3ccccc3)ncnc21)C(=O)OC here?
Answer: inactive: -4.67%

Question: With Cn1c(=O)[nH]c(=O)c2c1ncn2CCN1CCCCC1 as the compound, how does the inhibition read?
Answer: inactive: -1.15%

Question: With CCOC(=O)Nc1cccc([As](=O)(O)O)c1 as the compound, how does the inhibition read?
Answer: inactive: 3.74%

Question: Which inhibition does the source give for O=C(Cn1cnc2ccccc21)Nc1ccc(SC(F)F)cc1 here?
Answer: inactive: -33.9%

Question: With CC(NC(=O)Cn1cnc2c1c(=O)n(C)c(=O)n2C)c1ccccc1 (stereo not given) as the compound, how does the inhibition read?
Answer: inactive: -8.58%

Question: For COc1ccc(CNC(=O)Cn2cnc3c(NCc4ccccc4)ncnc32)cc1, which inhibition is on record?
Answer: inactive: 5.16%

Question: With O=C(C1CCCN(S(=O)(=O)c2cccnc2)C1)N1CCn2c1nc1ccccc12 (stereo not given) as the compound, how does the inhibition read?
Answer: inactive: -12.7%

Question: CCC(C(=O)NC1CCCCC1)n1c(SCc2cccc(C)c2)nc2ccncc21 (stereo not given) was tested. Which inhibition did it give?
Answer: inactive: -7.27%

Question: For Cc1nc2cc(C(F)(F)F)ccc2n1CCNc1nc(-c2ccc(F)cc2)cs1, which inhibition is on record?
Answer: inactive: -6.67%

Question: CCOCN(C(=O)Cn1cnc2ccccc21)c1c(C)cccc1CC was tested. Which inhibition did it give?
Answer: inactive: -27%

Question: How did the inhibition turn out when c1ccc(Cn2c(CNc3nc4ccccc4n3CCN3CCOCC3)nc3ccccc32)cc1 was run?
Answer: inactive: -23.1%

Question: For O=C(Nc1ccncc1[N+](=O)[O-])c1ccc([N+](=O)[O-])cc1[N+](=O)[O-], which inhibition is on record?
Answer: inactive: 5.09%

Question: For Cc1ccc2c(c1)C1CN(C)CCC1N2S(=O)(=O)c1cccc(C(F)(F)F)c1 (stereo not given), which inhibition is on record?
Answer: inactive: -12.6%

Question: Which inhibition does the source give for O=C(Cn1cnc2ccccc21)Nc1ccc(F)c(F)c1 here?
Answer: inactive: -62%

Question: Which inhibition does the source give for COC(=O)c1cccc(NC(=O)Cn2cnc3c2c(=O)n(C)c(=O)n3C)c1 here?
Answer: inactive: -8.06%

Question: How did the inhibition turn out when O=C(COc1ccccc1)OC1CN2CCC1CC2 (stereo not given) was run?
Answer: inactive: -32.9%

Question: O=C(Nc1ccccc1C(F)(F)F)N1CCC(n2c(=O)[nH]c3ccccc32)CC1 was tested. Which inhibition did it give?
Answer: inactive: -22.2%

Question: For CC(C)[C@H](NC(=O)N1CCn2c1nc1ccccc12)C(=O)N[C@H](Cc1ccccc1)C(=O)O, which inhibition is on record?
Answer: inactive: -8.48%

Question: Which inhibition does the source give for N#CCC(=O)N/N=C\c1cccc(OC/C=C/c2ccccc2)c1 here?
Answer: inactive: -5.15%

Question: With O=C(Cn1cnc2c(OCc3ccccc3)ncnc21)N1CCN(c2ccccn2)CC1 as the compound, how does the inhibition read?
Answer: inactive: -9.8%

Question: For CSc1nc(N)nc2c1ncn2CC(=O)Nc1ccc(C)c(C)c1, which inhibition is on record?
Answer: inactive: -11.2%

Question: With N=c1n(CCN2CCCCC2)c2ccccc2n1CC(=O)c1cccs1 as the compound, how does the inhibition read?
Answer: inactive: -9.4%

Question: Which inhibition does the source give for COC(=O)C[C@H](NC(=O)Cn1cnc2c(NCc3ccccc3)ncnc21)C(=O)OC here?
Answer: inactive: -2.55%

Question: CN(C)CCn1c(NCc2ccc3c(c2)OCO3)nc2ccccc21 was tested. Which inhibition did it give?
Answer: inactive: 5.76%

Question: COP1(=S)c2c(C)nn(CCC#N)c2N=C(c2ccc(F)cc2)N1C (stereo not given) was tested. Which inhibition did it give?
Answer: inactive: 1.01%

Question: Cc1ccc(C)c(S(=O)(=O)N2CCN(C(=O)Cn3cnc4c3c(=O)n(C)c(=O)n4C)CC2)c1 was tested. Which inhibition did it give?
Answer: inactive: -21.4%

Question: How did the inhibition turn out when C=CCn1c(=O)c2c(nc3n2CCN3c2cccc(Cl)c2C)n(C)c1=O was run?
Answer: inactive: 11.5%

Question: Which inhibition does the source give for O=C(Cn1cnc2c(NC(=O)OCc3ccccc3)ncnc21)NCCN1CCOCC1 here?
Answer: inactive: -1.71%

Question: How did the inhibition turn out when CC(C)NC(=O)Cn1c(SCC(=O)NC2CCCC2)nc2ccccc21 was run?
Answer: inactive: -18.1%

Question: How did the inhibition turn out when N=c1n(CCN2CCCC2)c2ccccc2n1CC(O)c1ccc(Cl)c(Cl)c1 (stereo not given) was run?
Answer: inactive: -15%

Question: For COc1ccc2c(c1)C1(Nc3ccccc3-c3nc4ccccc4n31)C(=O)N2C (stereo not given), which inhibition is on record?
Answer: inactive: 1.5%

Question: COc1cccc(NC(=O)[C@H](CC(C)C)NC(=O)N2CCn3c2nc2ccccc23)c1 was tested. Which inhibition did it give?
Answer: inactive: -24.6%

Question: With CC(C)[C@H](NC(=O)N1CCn2c1nc1ccccc12)C(=O)NC1CC1 as the compound, how does the inhibition read?
Answer: inactive: -4.05%

Question: How did the inhibition turn out when CCc1ccc(S(=O)(=O)N2c3ccc(C)cc3C3CN(C)CCC32)cc1 (stereo not given) was run?
Answer: inactive: 14.6%

Question: CCc1cccc(C)c1N(C(=O)Cn1c(COC)nc2ccccc21)C(C)COC (stereo not given) was tested. Which inhibition did it give?
Answer: inactive: -25.1%

Question: For O=[N+]([O-])c1ccc2c(c1)nc1n2CCN(c2ccccc2)C1, which inhibition is on record?
Answer: inactive: 1.94%

Question: How did the inhibition turn out when O=C(c1ccccc1)N1CCn2c(nc3ccccc32)C1 was run?
Answer: inactive: -16.1%

Question: Cc1nc2ccccc2n1CC(=O)N/N=C\c1ccccn1 was tested. Which inhibition did it give?
Answer: inactive: -24.9%

Question: CC(C)NC(=O)Cn1c(SCC(=O)N2CCCc3ccccc32)nc2ccccc21 was tested. Which inhibition did it give?
Answer: inactive: -34.4%

Question: For Cc1ccc(NC(=O)CCC(=O)N/N=C/C=C/c2ccccc2)cc1, which inhibition is on record?
Answer: inactive: 10.7%

Question: For Cc1nc2ccccc2n1CC(=O)NN, which inhibition is on record?
Answer: inactive: -3.39%

Question: O=C(Cn1cnc2c(NC(=O)OCc3ccccc3)ncnc21)NCc1ccccn1 was tested. Which inhibition did it give?
Answer: inactive: 9.12%

Question: For CCc1ccc(NC(=O)Cn2c(SC)nc3ccccc32)cc1, which inhibition is on record?
Answer: inactive: -7.38%

Question: How did the inhibition turn out when CCC(C)N(CC(C)C)C(=S)SC(NC(C)=O)C(Cl)(Cl)Cl (stereo not given) was run?
Answer: inactive: 3.64%

Question: With CC1CC(C)CN(C(=O)Cn2c(SCC(=O)N3CCc4ccccc4C3)nc3ccccc32)C1 (stereo not given) as the compound, how does the inhibition read?
Answer: inactive: 6.54%

Question: How did the inhibition turn out when CCN1C(=O)C2(Nc3ccccc3-c3nc4ccccc4n32)c2cc(OC)ccc21 (stereo not given) was run?
Answer: inactive: 20.4%

Question: How did the inhibition turn out when COc1ccc(N2C(=O)CC(n3cnc4ccccc43)C2=O)cc1 (stereo not given) was run?
Answer: inactive: -4.06%

Question: For COc1ccccc1NC(=O)Cn1cnc2c1c(=O)n(C)c(=O)n2C, which inhibition is on record?
Answer: inactive: -19.8%

Question: How did the inhibition turn out when Cc1ccc2c(c1)[C@@H]1CN(C)CC[C@@H]1N2C(=O)Nc1cccc(C(F)(F)F)c1 was run?
Answer: inactive: 2.57%

Question: Which inhibition does the source give for CCOC(=O)c1ccccc1NC(=O)CSc1nc2ccccc2n1CC(=O)N1CCCC1 here?
Answer: inactive: -19.3%

Question: Which inhibition does the source give for CSc1nc2ccccc2n1CC(=O)Nc1ccccc1 here?
Answer: inactive: -3.57%

Question: For Cc1nc2ccccc2n1CCN1CCOCC1, which inhibition is on record?
Answer: inactive: -1.08%

Question: Which inhibition does the source give for Cc1ccc2c(c1)C1CN(C)CCC1N2C(=O)Cc1cccs1 (stereo not given) here?
Answer: inactive: -24.2%

Question: Which inhibition does the source give for CN1C(=O)C2(Nc3ccccc3-c3nc4ccccc4n32)c2ccccc21 (stereo not given) here?
Answer: inactive: 18.2%

Question: Which inhibition does the source give for CCC(C)[C@H](NC(=O)N1CCn2c1nc1ccccc12)C(=O)NCc1ccccc1 (stereo not given in full) here?
Answer: inactive: -2.64%

Question: For Cc1ccc(NC(=O)Cn2cnc3ccccc32)cc1C, which inhibition is on record?
Answer: inactive: 9.08%

Question: How did the inhibition turn out when CCN(CC)C(=O)Cn1c(=O)n(Cc2ccccc2Cl)c2c1c(=O)n(C)c(=O)n2C was run?
Answer: inactive: 1.65%

Question: For CCN(CC)CCn1c(NC(=O)c2ccc(C(F)(F)F)cc2)nc2ccccc21, which inhibition is on record?
Answer: inactive: -7.18%

Question: For Cn1c(=O)c2c(nc(CN3CCOCC3)n2CCN2CCOCC2)n(C)c1=O, which inhibition is on record?
Answer: inactive: 6.73%

Question: Which inhibition does the source give for O=S(=O)(Nc1ccc2c(c1)nc1n2CCN(Cc2ccccc2)C1)c1ccc(F)cc1 here?
Answer: inactive: -11.2%

— PubChem BioAssay AID504634 (The Scripps Research Institute Molecular Screening Center, 2011)
